In ChEMBL document CHEMBL1140700, “Substituted pyrazoles as hepatoselective HMG-CoA reductase inhibitors: discovery of (3R,5R)-7-[2-(4-fluoro-phenyl)-4-isopropyl-5-(4-methyl-benzylcarbamoyl)-2H-pyrazol-3-yl]-3,5-dihydroxyheptanoic acid (PF-3052334) as a candidate for the treatment of hypercholesterolemia” (J Med Chem, 2008):

Legend:
[1] = target: T1, 3-hydroxy-3-methylglutaryl-coenzyme A reductase (Rattus norvegicus, UniProt P51639); assay: Inhibition of HMG-CoA reductase in Sprague-Dawley rat liver microsomes; set-up: species or system Microsome
T1 sequence (P51639 whole entry): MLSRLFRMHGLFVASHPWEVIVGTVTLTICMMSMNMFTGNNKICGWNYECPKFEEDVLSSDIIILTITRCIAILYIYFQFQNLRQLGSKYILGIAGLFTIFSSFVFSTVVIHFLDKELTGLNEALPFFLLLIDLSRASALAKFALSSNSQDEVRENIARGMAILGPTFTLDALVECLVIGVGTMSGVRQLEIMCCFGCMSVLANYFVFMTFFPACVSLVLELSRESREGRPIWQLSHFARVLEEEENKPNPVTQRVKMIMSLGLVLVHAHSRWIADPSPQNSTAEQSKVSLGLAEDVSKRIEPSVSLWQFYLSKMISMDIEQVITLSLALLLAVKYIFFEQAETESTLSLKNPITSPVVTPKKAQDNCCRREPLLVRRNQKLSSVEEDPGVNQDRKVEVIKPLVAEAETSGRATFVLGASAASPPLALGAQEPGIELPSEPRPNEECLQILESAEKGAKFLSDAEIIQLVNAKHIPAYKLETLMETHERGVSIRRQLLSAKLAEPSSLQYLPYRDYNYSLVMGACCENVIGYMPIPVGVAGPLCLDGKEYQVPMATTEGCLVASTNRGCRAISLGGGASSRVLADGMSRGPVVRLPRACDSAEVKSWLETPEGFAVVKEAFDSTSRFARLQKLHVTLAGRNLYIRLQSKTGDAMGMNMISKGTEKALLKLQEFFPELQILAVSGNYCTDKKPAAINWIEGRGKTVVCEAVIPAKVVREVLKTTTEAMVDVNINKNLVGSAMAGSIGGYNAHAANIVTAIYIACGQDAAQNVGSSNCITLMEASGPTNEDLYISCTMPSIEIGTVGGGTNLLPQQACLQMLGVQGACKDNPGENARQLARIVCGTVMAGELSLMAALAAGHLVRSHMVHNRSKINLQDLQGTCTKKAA

Hepatocyte = assay: Ratio of IC50 for cholesterol synthesis in rat myocytes to rat hepatocytes; format: functional

pIC50 [1]	SMILES	Ratio IC50 (Hepatocyte)
7.35	CC(C)c1c(C(=O)N(C)[C@@H](C)c2ccccc2)nn(-c2ccc(F)cc2)c1CC[C@@H](O)C[C@@H](O)CC(=O)O	
8.82	CC(C)c1c(C(=O)N(C)[C@H](C)c2ccccc2)nn(-c2ccc(F)cc2)c1CC[C@@H](O)C[C@@H](O)CC(=O)[O-].[Na+]	6300
7.92	CC(C)c1c(C(=O)Nc2ccccc2)c(-c2ccccc2)c(-c2ccc(F)cc2)n1CC[C@@H](O)C[C@@H](O)CC(=O)O [ATORVASTATIN]	

pIC50: −log10 of the molar value.
